# AlphaSeq binding of Ab-95 light chain variants to a spike HR2 peptide

Data: MIT Lincoln Laboratory AlphaSeq set, Engelhart et al. 2022, doi:10.1038/s41597-022-01779-4, as distributed in FLAb.

Target peptide (SARS-CoV-2 spike, HR2 region): PDVDLGDISGINAS

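The starting antibody came from a phage panning campaign against this peptide. AAYL52 was designed without a model: most single CDR substitutions and a random sample of double and triple ones. In AlphaSeq, yeast of one mating type display the scFv and yeast of the other type display the target. After mating in shaken culture at 30 °C for 16 h, diploids were selected and their barcode pairs sequenced. The ratio of observed to expected reads was calibrated, replicate by replicate, on BCL2-family standards whose Kd was known from biolayer interferometry. There are three technical replicates.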

Parent: Ab-95, a human scFv built as VH, a (GGGGS)3 linker, VL. Only the CDRs of the light chain vary.
VH: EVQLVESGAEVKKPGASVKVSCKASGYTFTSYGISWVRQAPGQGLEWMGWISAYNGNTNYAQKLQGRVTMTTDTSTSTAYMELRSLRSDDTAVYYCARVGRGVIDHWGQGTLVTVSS
VL: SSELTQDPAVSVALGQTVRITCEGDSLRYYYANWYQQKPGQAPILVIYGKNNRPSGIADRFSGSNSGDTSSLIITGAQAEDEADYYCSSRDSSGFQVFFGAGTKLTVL

Variants are written as CDR1, CDR2 and CDR3 of the light chain (limits as in the source). Parent: EGDSLRYYYAN, GKNNRPS, SSRDSSGFQVF. Affinities are written as log10 Kd with Kd in nM; a lower number is a better binder. Averages over replicates are reported, and they cover detected replicates only. A pair that was not seen in any replicate is written "no signal"; this usually means weak binding, but a binder can also be missed.

CDR-L1,CDR-L2,CDR-L3,mean log10 Kd (nM),seen in
EGDRLRYYYAV,GKNNRPS,SSRDSSGFQTF,4.18,1/3
HWDSLRYYYAN,GKNNRPS,SSRDSSGFQVS,3.17,3/3
EGDFLRYYYAN,GKNNRPP,SSIDSSGFQVF,3.58,3/3
EGDSLRIYYAN,GKNNRWS,SLRDSSGFQVF,4.76,2/3
ECDSLRYYYAN,GKNNRPS,SSRDSSGFIDF,2.93,3/3
EGISLRIYYAN,GKNNRPS,SSRDSWGFQVF,1.66,3/3
EGISLRYYYAN,GKNNRYS,SSRDSSGDQVF,3.70,2/3
EGDSLRYYYAN,MFNNRPS,SSRDSSGFFVF,4.07,1/3
EGDSIRHYYAN,GKNNRPS,SSRDNSGFQVF,2.89,3/3
QGDSLWYYYAN,GKNNRPS,SSRCSSGFQVF,3.40,3/3
EGDSLRKMYAN,GKNNRPS,SSRDSSGFYVF,1.80,3/3
EGDSLRYYYAN,GKDNRSS,SSRDSSDFQVF,3.60,3/3
EGDSLRYYYAN,GKNNTPS,SKRDSSGFQVM,3.06,2/3
EGDSLRYYYAN,GKNNLPS,SSSDSSDFQVF,3.41,1/3
EGAYLRYYYAN,GKGNRPS,SSRDSSGFQVF,2.18,1/3
EGDSLRYYYAN,HQNNRPS,SSRDSSGFQVF,3.13,2/3
EGDSLRYYYAN,TKNNRMS,SSRPSSGFQVF,4.40,2/3
EGDSLRYYYAN,GKNNNIC,SSRDSSGFQVF,3.57,3/3
EGDSQRYYYAN,GHRNRPS,SSRDSSGFQVF,4.79,2/3
EGDSLRLYYAN,GKNNGPS,SSRDHSGFQVF,4.33,1/3
EGDSLRMYYAN,GKNNRPS,SSRDWSGTQVF,3.29,3/3
EGDILRYYYAN,GKANRPS,SSRSSSGFQVF,4.36,2/3
EGDSQRYYYAN,GKNNRPS,SQRDSSGFQVF,2.60,2/3
ETDQLRYYYAN,GKNNRPS,KSRDSSGFQVF,4.44,1/3
EGDSWRYYYAN,MKNNRPS,DSRDSSGFQVF,4.50,1/3
EGDYLRYHYAN,GKNNFPS,SSRDSSGFQVF,3.68,3/3
EGDSLRYYMAN,GKNNSPS,SSRDSSGAQVF,2.57,3/3
EGDSMRYYYAN,CKNNRPS,SSRCSSGFQVF,3.67,1/3
EGDSLRYYYAN,YQNNRPS,SSRDSSGCQVF,4.72,3/3
EGDSLRYYYAN,HKNNRPS,SDRDSSGHQVF,3.72,3/3
EGDSLRYYYPN,GKNNRPS,SSRDSSGFQPF,2.17,3/3
ECDSLRYYYAN,GKNIRPS,SSRDSSGFQVP,3.07,2/3
KGDSLRYYYAL,GKNNRPS,SSRDSSGFQVL,4.24,3/3
EGDSLKHYYAN,GKNNRPS,SSRPSSGFQVF,1.89,3/3
EGFSLRYEYAN,GKNNRPS,SSRDSSGNQVF,2.90,3/3
EGDSLRYYYAN,GKVNRPS,SSWGSSGFQVF,3.45,2/3
EGDSLRYYYAI,GKNNRPY,SSRDSMGFQVF,no signal,0/3
EGNSKRYYYAN,GKNNRPS,SSRDSSGFQVF,2.58,3/3
EGDSLRYHYAN,GKNNRPS,SSRDSSGFQRF,3.41,3/3
EGDSLRYYYAN,GKNNEPS,SSRDSSGFQCF,3.73,1/3
EADSLRYYYAN,GPNNRPS,SSRDCSGFQVF,2.53,3/3
EGDSLRYYYAN,VKNNRPS,SSRDSQGFMVF,no signal,0/3
VGDNLRYYYAN,GKNNRPS,SDRDSSGFQVF,3.03,3/3
IGDSLRYYYAN,GKNNRPS,SSRDMSGFQVV,2.88,2/3
EGDSLRYYYAN,GKNNRPS,SSSDWLGFQVF,3.87,1/3
ELDSLRYYCAN,GKNNRPS,SSRDSSGFQVK,4.39,2/3
EGDSLRYFYAN,WKNNSPS,SSRDSSGFQVF,4.22,1/3

The last 6 entries again:

CDR-L1,CDR-L2,CDR-L3,mean log10 Kd (nM),seen in
EGDSLRYYYAN,VKNNRPS,SSRDSQGFMVF,no signal,0/3
VGDNLRYYYAN,GKNNRPS,SDRDSSGFQVF,3.03,3/3
IGDSLRYYYAN,GKNNRPS,SSRDMSGFQVV,2.88,2/3
EGDSLRYYYAN,GKNNRPS,SSSDWLGFQVF,3.87,1/3
ELDSLRYYCAN,GKNNRPS,SSRDSSGFQVK,4.39,2/3
EGDSLRYFYAN,WKNNSPS,SSRDSSGFQVF,4.22,1/3

Parent in this assay: reference entry 2.31, copy in this library 2.25. Background: pairings of library AAYL52 with three empty control strains gave a value in 28% of cases (median 3.91, 5th percentile 2.90). Values in that range, when seen in few replicates, are hard to tell from nonspecific mating.